Test results reported in US20230151052A1, “NEUROSTEROID COMPOUNDS AND METHODS FOR THEIR PREPARATION AND USE IN TREATING CENTRAL NERVOUS SYSTEM DISORDERS” (published 2023).

System: soman-induced seizures
Assay: Anticonvulsant efficacy in the nerve agent soman model
Settings: given 40-min after soman

For `C[C@@]1(O)CC[C@@]2(C)C(CC[C@@H]3C2CC[C@]2(C)[C@@H](C(=O)CO)CC[C@@H]32)C1` (some centres unmarked), the “Termination of SE, soman model” value was “effectively terminated SE”.
`CC(C)[C@H](N)C(=O)OCC(=O)[C@H]1CC[C@H]2[C@@H]3CCC4C[C@](C)(O)CC[C@]4(C)C3CC[C@]12C.Cl` (some centres unmarked) was tested, and the “Termination of SE, soman model” value was “effectively terminated SE”.
